The target in the assay is T1, reuptake of [3H]DA by striatum synaptosomes (Rattus norvegicus, UniProt P23977).
T1 construct: from tissue; host or cells: rat striatum synaptosomes
Kind of assay: IC50 for inhibiting reuptake of [3H]DA by brain synaptosomes (Example 36). Type of assay: biochemical. The protocol: Male SD rats were sacrificed by cervical dislocation and then the brains thereof were taken out rapidly by decollation and placed on ice. Related rain tissues (for [^3H]5-HT and [^3H]NA reuptake experiment, prefrontal cortex was taken; for [^3H]DA reuptake experiment, striatum was taken) were separated and weighed. 10 times (V/W) of 0.32 mol/L ice-cold sucrose solution was added and was homogenized electrically with glass-teflon. The homogenate was centrifugated at 4° C. at 1000 g×10 min. Then the supernatant was taken and centrifugated at 4° C. at 17000 g×20 min. The precipitation was suspended in 30 volume of KRH Buffer (125 mM NaCl, 4.8 mM KCl, 1.2 mM CaCl2, 1.2 mM MgSO4, 1.0 mM KH2PO4, 22 mM NaHCO3, 25 mM HEPES, 10 mM Glucose, 10 μM Pargyline, 0.2 mg/ml Ascorbic Acid) and then was preserved in an ice bath for use. (for NA reuptake experiment, the cortex needed was suspended in 20 volume of KRH Buffer)
1. Preparation of Rat Brain Synaptosomes (the Same as Example 35)
The compounds were used for the studies on inhibition effect (IC50) on reuptake of [^3H]5-HT/NA/DA. […] Each concentration was determined by the average of double twin tubes and the test was repeated for more than 3 times. […]
Sigmoidal curve fitting was performed for the data obtained from all of the test drugs by Origin 6.1, and the IC50 value was calculated.

Protein sequences, listed by entry. Tags and fused reporters are not part of them.
UniProt P23977, whole entry: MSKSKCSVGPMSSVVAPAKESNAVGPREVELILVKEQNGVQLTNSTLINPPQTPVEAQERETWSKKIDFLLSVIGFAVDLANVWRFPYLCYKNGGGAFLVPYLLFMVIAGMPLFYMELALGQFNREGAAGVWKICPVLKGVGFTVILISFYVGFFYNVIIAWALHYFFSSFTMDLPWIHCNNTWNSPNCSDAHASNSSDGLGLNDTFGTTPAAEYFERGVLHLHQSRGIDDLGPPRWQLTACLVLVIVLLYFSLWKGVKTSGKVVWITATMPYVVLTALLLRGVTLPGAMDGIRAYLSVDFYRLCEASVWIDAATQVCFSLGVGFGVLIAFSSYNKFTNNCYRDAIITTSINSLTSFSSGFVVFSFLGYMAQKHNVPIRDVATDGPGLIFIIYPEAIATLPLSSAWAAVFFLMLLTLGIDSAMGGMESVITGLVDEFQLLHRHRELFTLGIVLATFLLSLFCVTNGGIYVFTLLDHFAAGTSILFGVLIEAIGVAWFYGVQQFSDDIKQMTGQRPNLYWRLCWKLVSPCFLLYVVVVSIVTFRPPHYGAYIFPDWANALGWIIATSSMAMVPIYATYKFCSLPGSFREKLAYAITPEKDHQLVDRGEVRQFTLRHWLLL

The structures appear in SMILES notation.

One may read the IC50 as the concentration needed to halve the response being measured. A higher IC50 goes with weaker potency. Compound `COc1ccc(C(CN(C)C)C2(O)CCCCC2)cc1` (stereo not shown) [venlafaxine, reference compound] yielded an IC50 of 3.07 µM.

The values are drawn from patent US8252796B2, “1-butyl-2-hydroxyaralkyl piperazine derivatives and the uses as anti-depression medicine thereof” (CSPC Zhonggi Pharmaceutical Technology (Shijiazhuang) Co. …, priority 2008, dated 2012).
